{"sequences": {"note": "Protein sequences, listed by entry. Tags and fused reporters are not part of them. Chains listed by the source or under a name are the forms on record and can include a tag or linker.", "UniProt P21917, whole entry P18R/N396T": "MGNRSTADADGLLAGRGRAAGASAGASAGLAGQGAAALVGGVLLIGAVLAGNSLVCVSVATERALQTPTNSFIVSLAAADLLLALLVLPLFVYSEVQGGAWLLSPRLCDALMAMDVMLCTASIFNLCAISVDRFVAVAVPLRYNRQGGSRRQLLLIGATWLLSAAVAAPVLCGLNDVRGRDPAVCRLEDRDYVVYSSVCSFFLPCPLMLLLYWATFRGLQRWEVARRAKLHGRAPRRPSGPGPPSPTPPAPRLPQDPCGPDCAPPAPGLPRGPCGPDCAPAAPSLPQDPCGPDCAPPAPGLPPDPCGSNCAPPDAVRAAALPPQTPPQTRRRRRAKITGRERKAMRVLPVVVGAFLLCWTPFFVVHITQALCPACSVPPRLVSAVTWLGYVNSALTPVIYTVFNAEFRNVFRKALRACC", "UniProt P21917, with tags, fused parts or gaps with the stated changes": "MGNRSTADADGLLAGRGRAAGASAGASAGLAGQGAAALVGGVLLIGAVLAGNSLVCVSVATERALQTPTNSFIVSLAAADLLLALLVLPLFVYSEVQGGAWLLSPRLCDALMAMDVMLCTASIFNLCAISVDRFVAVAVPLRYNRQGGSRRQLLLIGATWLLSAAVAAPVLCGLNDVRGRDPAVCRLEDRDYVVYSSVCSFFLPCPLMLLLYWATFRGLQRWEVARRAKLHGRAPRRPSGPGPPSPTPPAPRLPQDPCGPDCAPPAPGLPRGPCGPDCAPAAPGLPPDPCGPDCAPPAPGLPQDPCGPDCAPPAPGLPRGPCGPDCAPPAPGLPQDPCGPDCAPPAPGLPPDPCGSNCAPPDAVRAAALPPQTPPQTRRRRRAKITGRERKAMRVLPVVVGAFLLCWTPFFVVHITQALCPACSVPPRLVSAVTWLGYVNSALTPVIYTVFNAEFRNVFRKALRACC", "UniProt P21917, with tags, fused parts or gaps P18R/DEL271-302/N396T": "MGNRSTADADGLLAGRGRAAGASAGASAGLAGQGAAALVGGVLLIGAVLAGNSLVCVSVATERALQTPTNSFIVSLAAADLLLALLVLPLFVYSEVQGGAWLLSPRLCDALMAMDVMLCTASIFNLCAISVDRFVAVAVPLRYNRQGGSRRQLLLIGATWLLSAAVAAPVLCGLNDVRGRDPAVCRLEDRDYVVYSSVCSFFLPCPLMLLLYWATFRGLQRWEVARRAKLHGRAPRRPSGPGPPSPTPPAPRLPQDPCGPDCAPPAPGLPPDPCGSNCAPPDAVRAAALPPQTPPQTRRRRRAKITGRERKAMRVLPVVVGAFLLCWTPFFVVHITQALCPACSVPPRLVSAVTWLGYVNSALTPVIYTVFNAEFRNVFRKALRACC"}, "source": "patent US7053189B2", "about": "(Oregon Health & Sciences University, priority 1990, dated 2006)", "key": {"[1]": {"molecular_target": "human D4 dopamine receptor allele D4.4 (Homo sapiens, UniProt P21917, N396T/P18R)", "details": "D4.4, presence of 120 mM sodium chloride"}, "[2]": {"molecular_target": "human D4 dopamine receptor allele D4.7 (Homo sapiens, UniProt P21917, INS283GLPPDPCGPDCAPPAPGLPQDPCGPDCAPPAPGLPRGPCGPDCAPPAP/N396T/P18R/S284G)", "details": "D4.7, presence of 120 mM sodium chloride"}, "[3]": {"molecular_target": "human D4 dopamine receptor allele D4.2 (Homo sapiens, UniProt P21917, DEL271-302/N396T/P18R)", "details": "D4.2, presence of 120 mM sodium chloride"}}}
{"compound": "O=C(CCCN1CCC2(CC1)C(=O)NCN2c1ccccc1)c1ccc(F)cc1", "note": "[[^3H]spiperone]", "values": [{"measurement": "change of [3H]spiperone dissociation constant", "setting": "[1]", "value": "increased approximately two- to three-fold"}, {"measurement": "change of [3H]spiperone dissociation constant", "setting": "[2]", "value": "not for D4.7"}, {"measurement": "change of [3H]spiperone dissociation constant", "setting": "[3]", "value": "increased approximately two- to three-fold"}]}
